Laboratory results from article PMC10014103, “The immunometabolite itaconate stimulates OXGR1 to promote mucociliary clearance during the pulmonary innate immune response” (The Journal of Clinical Investigation, 2023).

Tested on: human OXGR1 orthosteric site mutants
Assay: Aequorin assay in HEK293 cells expressing mutant human OXGR1
Format: cell-based
Settings: effect of mutation on ligand-stimulated calcium response
Experimental: Thirty-six hours after transfection, cells were maintained in serum-free medium for 12 hours and then loaded with 5 μM coelenterazine for 3 hours. Cells were trypsinized and resuspended at a density of 5 × 10^5 cells/mL in HBSS supplemented with 10 mM HEPES and 0.5% BSA. Cell suspensions of 100 μL were aliquoted into 96-well plates.

## O=C(O)CCC(=O)C(=O)O [α-KG, α-ketoglutaric acid, reference compound]
  calcium response, mutants C106A, R110A, H258A, R261A, I265A: completely abolished
  calcium response, mutants H114A, Y118F, I121A, I285A, R288A: dramatically impaired
